Test results taken from US20240400711A1 (SOUND BIOPHARMACEUTICALS, published 2024).

Molecular target: T1, CD38 on CD38-positive cells (human, UniProt P28907 1-300)
T1 construct: whole, on cells; also called CD38 on H211, SU-DHL-6, Daudi, Ramos (Romas), Raji, SU-DHL-1, DU145, H157 cells
Experiment: flow cytometry on SU-DHL-6 cells (B cell lymphoma), MFI against antibody concentration [table, row SU-DHL-6]

B1: FTL004-1 (antibody, human IgG1, kappa)
heavy: not shown
light: DIVLTQSPASLAVSPGQRATITCRASESVDNFGITFMHWYQQKPGQPPKLLIYRASNLESGVPARFSGSGSRTDFTLTINPVEANDTANYYCQQSSKDPRTFGQGTKLEIKRTVAAPSVFIFPPSDEQLKSGTASVVCLLNNFYPREAKVQWKVDNALQSGNSQESVTEQDSKDSTYSLSSTLTLSKADYEKHKVYACEVTHQGLSSPVTKSFNRGEC
notes: copies: 2 + 2
  EC50: 0.436 mg/L
